In assay [1] the target is G-protein coupled receptor 52 (Mus musculus) (UniProt P0C5J4). Briefly: In-vivo antagonist activity at GPR52 in HdhQ140 mouse model with GPR52 knockdown assessed as decrease in soluble mHTT levels in striatum at 5 mg/kg, iv. It counts as functional, organism-based.
The target is the same in assay [2]. In words: In-vivo antagonist activity at GPR52 in HdhQ140 mouse model with GPR52 knockdown assessed as decrease in aggregation of mHTT at 0.5 mM, icv. It counts as functional.
Assay [3] has the same target. Briefly: In-vivo antagonist activity at GPR52 in HdhQ140 mouse model with GPR52 knockdown assessed as decrease in aggregation of mHTT levels in striatum at 5 mg/kg, iv. Type of assay: functional, organism-based.
The target is the same in assay [4]. Briefly: In-vivo antagonist activity at GPR52 in HdhQ140 mouse model with GPR52 knockdown assessed as decrease in aggregation of mHTT levels in cortex at 5 mg/kg, iv. Type of assay: functional, organism-based.
The target is the same in assay [5]. In words: In-vivo antagonist activity at GPR52 in HdhQ140 mouse model with GPR52 knockdown assessed as decrease in soluble mHTT levels in cortex at 5 mg/kg, iv. It counts as functional, organism-based.
Assay [6] shares this target. In words: In-vivo antagonist activity at GPR52 in primary neuron from HdhQ140 mouse model with GPR52 knockdown assessed as decrease in mHTT levels. Type of assay: functional, tissue-based.
Assay [7] has the same target. Briefly: In-vivo antagonist activity at GPR52 in HdhQ140 mouse model with GPR52 knockdown assessed as decrease in soluble mHTT levels at 0.5 mM, icv. Type of assay: functional.

The chains behind the UniProt entries cited, without tags or fusion partners. Where a name states a change or a piece, a line headed by the entry shows the natural chain unless it says otherwise.
UniProt P0C5J4: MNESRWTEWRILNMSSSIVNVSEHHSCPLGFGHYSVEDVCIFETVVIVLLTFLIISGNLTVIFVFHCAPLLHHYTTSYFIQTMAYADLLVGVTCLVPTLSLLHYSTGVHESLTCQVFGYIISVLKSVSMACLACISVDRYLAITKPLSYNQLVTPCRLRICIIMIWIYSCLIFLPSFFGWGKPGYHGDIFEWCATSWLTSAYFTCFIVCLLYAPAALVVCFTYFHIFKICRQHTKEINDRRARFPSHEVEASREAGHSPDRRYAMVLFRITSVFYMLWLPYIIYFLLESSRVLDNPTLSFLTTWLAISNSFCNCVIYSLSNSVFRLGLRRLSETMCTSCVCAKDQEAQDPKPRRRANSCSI

The source made the active and inactive calls. The rule behind the calls is not given here.

`O=C(/C=C/CCc1ccccc1)c1cccs1`: the result in assay [1], in assay [2], in assay [3] and in assay [7] was Active. The outcome in assay [4] and in assay [5] was inactive. The Activity result in assay [6] was “Dose-dependent effect”.

For the origin of these results see ChEMBL document CHEMBL4732142, “Discovery of the First Druggable GPR52 Antagonist to Treat Huntington's Disease” (J Med Chem, 2021).
